# Ab-14 light chain CDR variants: yeast mating affinities

Target: peptide PDVDLGDISGINAS, taken from heptad repeat 2 (HR2) of SARS-CoV-2 spike.

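The starting antibody came from a phage panning campaign against this peptide. AAYL50 was designed without a model: most single CDR substitutions and a random sample of double and triple ones. Affinity was read by AlphaSeq, a pooled yeast mating assay with surface-displayed partners. Binding brings cells together so that they mate, and sequencing counts the barcode pairs among the diploids. Read counts were normalised to the haploid input and turned into Kd by a linear fit to BCL2-family pairs of known affinity, for each replicate. The assay was run in three technical replicates.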

Ab-14 is the parent antibody, in scFv form: VH, then three GGGGS repeats, then VL. The heavy chain is unchanged in all variants.
VH: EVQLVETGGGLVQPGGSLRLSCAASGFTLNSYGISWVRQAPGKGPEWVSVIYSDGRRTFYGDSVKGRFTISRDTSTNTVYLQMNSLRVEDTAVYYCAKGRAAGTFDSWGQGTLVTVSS
VL: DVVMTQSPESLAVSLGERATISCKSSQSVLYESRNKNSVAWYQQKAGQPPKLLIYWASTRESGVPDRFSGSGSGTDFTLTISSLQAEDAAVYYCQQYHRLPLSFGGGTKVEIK

Positions count from residue 1 of the parent VL; S26P puts P in place of S.
The read-out is the apparent dissociation constant on a log10 scale (nM): the lower, the stronger.
"n.d." means that the variant was in the library but no mating with the target was seen in that replicate; the authors take this as a sign of poor binding, and no number exists.
As a blank, each scFv also met three strains without target: over library AAYL50, 18% of these pairings were detected, typically at 4.19 and seldom below 2.99. For each scFv, signals with the empty controls are counted beside the result, with their mean in brackets.

changes	log10 Kd, replicates	signal with controls
S26P+S58F+R99Y	n.d. / n.d. / 3.48	1 of 9 (3.56)
S33T+T59F+L102V	n.d. / 4.30 / n.d.	2 of 9 (4.46)
S25M+Y31L+S58V	0.76 / 1.08 / 0.89	0 of 9
A57M+S58H+H98K	3.45 / n.d. / n.d.	0 of 9
A40C+R99T+P101R	3.09 / 1.62 / 2.52	0 of 9
S62M+P101F+L102H	n.d. / 4.58 / n.d.	0 of 9
K24M+R34E+Q96F	0.47 / 0.66 / 0.48	1 of 9 (3.61)
R34P+Q96S+Y97V	0.19 / 0.47 / 0.37	4 of 9 (5.00)
S25F+A57N+P101E	2.62 / 2.44 / 2.43	3 of 9 (4.22)
E32K+V39K+L102F	n.d. / n.d. / n.d.	1 of 9 (3.80)
S58I+P101D+S103A	3.43 / 3.71 / 3.51	0 of 9
N35C+S62Y+L100P	n.d. / 3.15 / 5.54	7 of 9 (4.81)
S25D+Y31E	0.50 / 0.92 / 0.53	0 of 9
N37W	1.48 / 1.36 / 1.86	3 of 9 (4.10)
R34L+T59V	2.24 / 2.36 / n.d.	2 of 9 (3.54)
L30C+A40H+S62Y	n.d. / n.d. / 5.06	2 of 9 (3.68)
V29I+S33N	0.47 / 0.89 / 0.67	1 of 9 (3.73)
S25L+Q96C	1.17 / 1.11 / 1.14	0 of 9
N37Q+T59I+H98V	0.74 / 1.42 / 1.26	0 of 9
S38R+S103E	3.02 / n.d. / n.d.	0 of 9
S25G+S62V+Q95Y	n.d. / n.d. / n.d.	0 of 9
E32C+T59N+P101W	n.d. / n.d. / n.d.	0 of 9
S33Y+S38Y+V39M	n.d. / 2.44 / n.d.	1 of 9 (2.07)
S26V+V29K+L102H	5.00 / 3.20 / 6.17	4 of 9 (4.91)
N37V+W56G+Q95W	n.d. / n.d. / 5.37	3 of 9 (3.82)
S25Q+R34H	0.87 / 1.04 / 1.04	0 of 9
L30D+Y31K+K36C	0.53 / 1.71 / 1.15	0 of 9
S25E+W56C+E61H	n.d. / 1.61 / 2.70	0 of 9
E32A+T59K+E61S	n.d. / n.d. / n.d.	0 of 9
S28A+L100M+L102T	1.00 / 1.14 / 1.09	1 of 9 (6.18)
W56A+Y97V+S103N	1.32 / 1.57 / 1.53	5 of 9 (4.47)
S33V+N37I+L100W	n.d. / n.d. / n.d.	2 of 9 (3.27)
E32Y+N37H+L100A	n.d. / n.d. / n.d.	2 of 9 (3.71)
V39I+L102T	n.d. / 3.21 / 3.15	2 of 9 (3.49)
S33D+R34V+A57P	n.d. / n.d. / n.d.	0 of 9
Q27L+R34M+A40V	n.d. / 3.12 / n.d.	1 of 9 (2.82)

The 5 strongest on average among those seen in every replicate, once more:

changes	log10 Kd, replicates	signal with controls
R34P+Q96S+Y97V	0.19 / 0.47 / 0.37	4 of 9 (5.00)
K24M+R34E+Q96F	0.47 / 0.66 / 0.48	1 of 9 (3.61)
S25D+Y31E	0.50 / 0.92 / 0.53	0 of 9
V29I+S33N	0.47 / 0.89 / 0.67	1 of 9 (3.73)
S25M+Y31L+S58V	0.76 / 1.08 / 0.89	0 of 9

For reference, the parent read 0.65 as the reference entry and 1.68 as a member of this library.

Data: MIT Lincoln Laboratory AlphaSeq set, Engelhart et al. 2022, doi:10.1038/s41597-022-01779-4, as distributed in FLAb.